Test results from PubChem BioAssay AID651685 (The Scripps Research Institute Molecular Screening Center, 2012).
Calls of active or inactive are those of the source. How the calls were made is not given here.

The chains behind the UniProt entries cited, without tags or fusion partners.
UniProt P35372, whole entry, looked up: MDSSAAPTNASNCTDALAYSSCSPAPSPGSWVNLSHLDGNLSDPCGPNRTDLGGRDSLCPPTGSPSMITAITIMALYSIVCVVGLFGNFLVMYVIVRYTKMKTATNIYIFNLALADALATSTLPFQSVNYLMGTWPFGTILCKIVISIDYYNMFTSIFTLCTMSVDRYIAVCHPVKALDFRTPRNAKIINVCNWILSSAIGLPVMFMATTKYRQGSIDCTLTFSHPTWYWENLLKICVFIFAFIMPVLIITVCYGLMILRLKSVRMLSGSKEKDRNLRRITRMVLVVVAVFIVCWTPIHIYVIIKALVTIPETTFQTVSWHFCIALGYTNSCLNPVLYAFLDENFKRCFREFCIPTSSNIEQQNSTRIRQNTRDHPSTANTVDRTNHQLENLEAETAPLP

Biological target: Mu-type opioid receptor (Homo sapiens) (UniProt P35372)
Assay: activators of OPRM1-OPRD1 heterodimerization, late-stage follow-up, cell-based, luminescence, dose response (AID 651685)
Settings: cells, luminescence complementation

For CCOc1ccc(CN2CCC(Nc3cccc4ccccc34)CC2)cc1C#N, the EC50 was inactive: > 40 µM.
